The experiment deals with F-actin and myosin II complexes (rabbit) (UniProt P68135). Description: far-Western, overlay or dot blot; 2-fold dilutions of in vitro polymerized F-actin (top 0.2 or 0.4 μM) or pre-assembled F-actin and myosin II complexes (top 0.04 or 0.2 μM) on nitrocellulose, probed with FLAG-tagged DNGR-1 ECD or CTLD (20 μg/mL), detected with HRP anti-FLAG (M2).

“FLAG-tagged recombinant dimeric mouse DC, NK lectin group receptor-1 (mDNGR-1) extracellular domain (ECD) (from UniProt Q8BRU4 57-238) (domain or fragment)” returned a fold improvement of binding over F-actin alone greater than 50 fold.

For the origin of these results see PMC6057488.
